Target: T1, V1AR (Homo sapiens, UniProt P37288, DEL253-275)
T1 construct: expressed in transfected cells; host or cells: HEK 293T
Assay: cAMP accumulation, V1AR
Assay type: cell-based
Conditions: V1R ∆ICL3; saturating agonist concentration; 500 µM IBMX
Excerpt: […]. The cells were washed once by repeating this procedure.

Sequences of proteins named here, by UniProt entry; tags and fusion partners are left off. A line that says so, or that is headed by a name, gives the form on record, which may keep a tag or linker.
UniProt P37288, with tags, fused parts or gaps DEL253-275: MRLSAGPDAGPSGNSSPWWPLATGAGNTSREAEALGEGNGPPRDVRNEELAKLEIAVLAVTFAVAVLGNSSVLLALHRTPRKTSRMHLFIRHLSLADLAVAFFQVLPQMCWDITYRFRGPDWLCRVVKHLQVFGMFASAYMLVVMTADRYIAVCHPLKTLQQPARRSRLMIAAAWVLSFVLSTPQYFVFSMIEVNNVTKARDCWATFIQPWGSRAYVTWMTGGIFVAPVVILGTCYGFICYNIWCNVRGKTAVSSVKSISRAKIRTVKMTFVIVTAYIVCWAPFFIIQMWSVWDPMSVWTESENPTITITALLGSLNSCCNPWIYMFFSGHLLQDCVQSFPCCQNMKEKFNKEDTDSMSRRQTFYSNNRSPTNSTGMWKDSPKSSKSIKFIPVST

Substance: CYFQNCPRG-NH2 [Arginine vasopressin]
- cAMP (AU), Average: 0.0331 AU

From publication PMC10033409, “Autoregulation of GPCR signalling through the third intracellular loop” (Nature, 2023)
